Test results reported in patent US7371379B2, “Dosages for treatment with anti-ErbB2 antibodies” (Genentech, Inc., priority 1999, dated 2008).

What was measured:
[1] = test system: BT-474 human breast adenocarcinoma cells; details: nude mice injected with BT-474 cells; cited from earlier work
[2] = test system: human breast cancer; assay: subsequent human study, 8 mg/kg load:4 mg/kg weekly; type: in vivo; details: 8 mg/kg load:4 mg/kg weekly maintenance, preliminary human study
Method: In a subsequent, similarly designed study, human breast cancer patients were treated with a loading dose of 8 mg/kg followed by maintenance doses of4 mg/kg weekly.

[3] = test system: BT-474M1; assay: nude mouse xenograft tumor volume, i.v. bolus versus s.c. bolus (Example 4); type: in vivo; details: for Tumor Vol. Day 6, mm^3: initial measurement before first dose; for Day 6-Day 31 Area Under Curve Tumor Vol., mm^3: Day 17 excluded
Method: (§1) This study was set up as disclosed herein in Example 3 for the comparison of intravenous bolus and subcutaneous infusion delivery. A sustained release estrogen implant was inserted subcutaneously one day before tumor cell innoculation as described in Example 3. Six days after tumor cell innoculation, the initial tumor measurement was performed. […] Animals were dosed once weekly for 4 weeks.
(§2) The mice were treated according to the information in Table 4 and using the techniques disclosed in Example 3. […] The control E25 antibody serum concentration was determined according to standard immunoassay techniques.
For this study, efficacy was measured as a decrease in tumor volume. Tumor volume was measured twice weekly.

[4] = HERCEPTIN serum concentration in patients (Example 2); type: in vivo, human
[5] = serum antibody concentration in xenograft mice (Example 4); type: in vivo, mouse
Method: as §1, §2

[6] = test system: BT-474M1; assay: nude mouse xenograft tumor volume, i.v. bolus versus s.c. infusion (Example 3); type: in vivo
Method: A study in a nude mouse xenograft model, which incorporates a human breast cancer cell line that naturally overexpresses the HER2 gene (BT-474M1, derived from BT-474 cells, ATCC Accession number HTB-20), comparing tumor volume as a function of i.v. bolus versus s.c. infusion was performed as follows. In the first study athymic nude nu nu 7-9 week old female mice were obtained from Taconic Inc (Germantown, N.Y.). To initiate tumor development, each mouse was inoculated subcutaneously with 3×10^6 BT474M1 cells suspended in Matrigel™. When tumor nodules reached a volume of approximately 100 mm^3, animals were randomized to 4 treatment groups. The groups were treated according to Table 3.
The study groups were treated until day 35.

[7] = test system: ErbB2 over-expressing metastatic breast cancer; assay: planned study of HERCEPTIN every three weeks with paclitaxel (Example 6); type: in vivo, human; details: 8 mg/kg then 6 mg/kg every 3 weeks with paclitaxel 175 mg/m^2 every 3 weeks
Method: After the first 12 patients the PK parameters will be assessed, if exposure is felt inadequate, then the dose will be increased to 8 mg/kg every three weeks for the remaining 12 patients.
Inclusion Criteria • 1) Females24 18 years of age • 2) Histologically confirmed ErbB2 over-expressing metastatic breast cancer • 3) Patients who have been newly diagnosed with metastatic disease • 4) Have a Karnofsky performance status of 24 70% • 5) Give written informed consent prior to any study specific screening procedures with the understanding that the patient has the right to withdraw from the study at any time, without prejudice. […]

HERCEPTIN: recombinant humanized anti-ErbB2 monoclonal antibody, a humanized version of the murine anti-ErbB2 antibody 4D5
activity of chemotherapy against breast cancer xenografts [1]: enhance the activity of paclitaxel (TAXOL®) and doxorubicin
tumor volume in the patients [2]: efficacious in reducing tumor volume
Tumor Vol. Day 6, mm^3 ([3]; Group 2, IV, LD 2, MD 1 mg/kg): 297 mm^3
Tumor Vol. Day 28, mm^3 ([3]; Group 2, IV, MD 1 mg/kg): 175 mm^3
Tumor Vol. Day 31, mm^3 ([3]; Group 2, IV, MD 1 mg/kg): 151 mm^3
Day 6-Day 31 Area Under Curve Tumor Vol., mm^3 ([3]; Group 2, IV, MD 1 mg/kg): 4690 mm^3
Tumor Vol. Day 6, mm^3 ([3]; Group 3, IV, LD 4, MD 2 mg/kg): 269 mm^3
Tumor Vol. Day 28, mm^3 ([3]; Group 3, IV, MD 2 mg/kg): 75.7 mm^3
Tumor Vol. Day 31, mm^3 ([3]; Group 3, IV, MD 2 mg/kg): 73.6 mm^3
Day 6-Day 31 Area Under Curve Tumor Vol., mm^3 ([3]; Group 3, IV, MD 2 mg/kg): 3510 mm^3
Tumor Vol. Day 6, mm^3 ([3]; Group 4, IV, LD 8, MD 4 mg/kg): 272 mm^3
Tumor Vol. Day 28, mm^3 ([3]; Group 4, IV, MD 4 mg/kg): 25.3 mm^3
Tumor Vol. Day 31, mm^3 ([3]; Group 4, IV, MD 4 mg/kg): 25.8 mm^3
Day 6-Day 31 Area Under Curve Tumor Vol., mm^3 ([3]; Group 4, IV, MD 4 mg/kg): 2880 mm^3
Tumor Vol. Day 6, mm^3 ([3]; Group 5, SC, LD 4, MD 2 mg/kg): 268 mm^3
Tumor Vol. Day 28, mm^3 ([3]; Group 5, SC, MD 2 mg/kg): 76.2 mm^3
Day 6-Day 31 Area Under Curve Tumor Vol., mm^3 ([3]; Group 5, SC, MD 2 mg/kg): 3230 mm^3
efficacy of subcutaneous bolus versus intravenous bolus dosing ([3]; mouse, in vivo): dosing by subcutaneous bolus was as effective as intravenous bolus dosing
trough serum concentration, mean ([4]; Week 2, patients with 2+ HER2 overexpression): 28.8 µg/mL
trough serum concentration, mean ([4]; Week 2, patients with 3+ HER2 overexpression): 24.1 µg/mL
trough serum concentration, mean ([4]; Week 2, patients with superficial disease): 34.1 µg/mL
trough serum concentration, mean ([4]; Week 2, patients with visceral disease): 24.4 µg/mL
trough serum concentration (mean±SD) ([4]; average troughs of Weeks 7 and 8, responders): 60 ± 20 µg/mL
Peak serum concentration, Maximum ([4]; dose number 1): 274.6 µg/mL
Peak serum concentration, Minimun ([4]; dose number 1): 30.7 µg/mL
Trough serum concentration, Maximum ([4]; dose number 1): 60.7 µg/mL
Trough serum concentration, Minimun ([4]; dose number 1): 0.16 µg/mL
Peak serum concentration, Maximum ([4]; dose number 2): 307.9 µg/mL
Peak serum concentration, Mean ([4]; dose number 2): 74.3 µg/mL
Peak serum concentration, Minimun ([4]; dose number 2): 20.8 µg/mL
Trough serum concentration, Maximum ([4]; dose number 2): 74.4 µg/mL
Trough serum concentration, Minimun ([4]; dose number 2): 0.2 µg/mL
Peak serum concentration, Maximum ([4]; dose number 3): 194.8 µg/mL
Peak serum concentration, Mean ([4]; dose number 3): 75.3 µg/mL
Peak serum concentration, Minimun ([4]; dose number 3): 16.1 µg/mL
Trough serum concentration, Minimun ([4]; dose number 3): 0.2 µg/mL
Peak serum concentration, Maximum ([4]; dose number 4): 167 µg/mL
Peak serum concentration, Mean ([4]; dose number 4): 80.2 µg/mL
Trough serum concentration, Maximum ([4]; dose number 4): 89.4 µg/mL
Trough serum concentration, Minimun ([4]; dose number 4): 0.2 µg/mL
trough serum concentration, mean ([4]; dose number 4): 38.6 µg/mL
Peak serum concentration, Maximum ([4]; dose number 5): 185.8 µg/mL
Peak serum concentration, Mean ([4]; dose number 5): 85.9 µg/mL
Peak serum concentration, Minimun ([4]; dose number 5): 27.8 µg/mL
Trough serum concentration, Maximum ([4]; dose number 5): 148.7 µg/mL
Trough serum concentration, Minimun ([4]; dose number 5): 0.2 µg/mL
trough serum concentration, mean ([4]; dose number 5): 42.1 µg/mL
Peak serum concentration, Maximum ([4]; dose number 6): 218.1 µg/mL
Peak serum concentration, Mean ([4]; dose number 6): 87.2 µg/mL
Trough serum concentration, Minimun ([4]; dose number 6): 0.2 µg/mL
trough serum concentration, mean ([4]; dose number 6): 43.2 µg/mL
Peak serum concentration, Maximum ([4]; dose number 7): 187.8 µg/mL
Peak serum concentration, Mean ([4]; dose number 7): 89.7 µg/mL
Peak serum concentration, Minimun ([4]; dose number 7): 16.3 µg/mL
Trough serum concentration, Minimun ([4]; dose number 7): 0.2 µg/mL
trough serum concentration, mean ([4]; dose number 7): 48.8 µg/mL
Peak serum concentration, Maximum ([4]; dose number 8): 295.6 µg/mL
Peak serum concentration, Minimun ([4]; dose number 8): 11.4 µg/mL
Serum Concentration, Mean ([5]; Group 2, IV, MD 1 mg/kg, Day 0): 0 µg/mL
Serum Concentration, Mean ([5]; Group 2, IV, MD 1 mg/kg, Day 7): 4.96 µg/mL
Serum Concentration, Mean ([5]; Group 2, IV, MD 1 mg/kg, Day 14): 8.55 µg/mL
Serum Concentration, Mean ([5]; Group 2, IV, MD 1 mg/kg, Day 21): 8.05 µg/mL
Serum Concentration, Mean ([5]; Group 3, IV, MD 2 mg/kg, Day 0): 0 µg/mL
Serum Concentration, Mean ([5]; Group 3, IV, MD 2 mg/kg, Day 21): 22.6 µg/mL
Serum Concentration, Mean ([5]; Group 4, IV, MD 4 mg/kg, Day 0): 0 µg/mL
Serum Concentration, Mean ([5]; Group 4, IV, MD 4 mg/kg, Day 7): 29.6 µg/mL
Serum Concentration, Mean ([5]; Group 4, IV, MD 4 mg/kg, Day 21): 46.2 µg/mL
Serum Concentration, Mean ([5]; Group 5, SC, MD 2 mg/kg, Day 0): 0 µg/mL
Serum Concentration, Mean ([5]; Group 5, SC, MD 2 mg/kg, Day 14): 16.9 µg/mL
growth of the tumors ([6]; BT474M1 tumor-bearing mice, all dosage methods, relative to control group): significantly inhibited the growth of the tumors
Tumor Volume (area under curve) Day 6-Day 35 ([6]; i.v. bolus, 4.0 mg/kg LD, 2.0 mg/kg/week MD): 2150 ± 1480
Tumor Volume (mm^3), Day 35 ([6]; i.v. bolus, 4.0 mg/kg Loading Dose and 2.0 mg/kg/week Maintenance Dose): 49.7 ± 95.7 mm^3
efficacy of subcutaneous infusion versus intravenous bolus dosing ([6]; mouse, in vivo): dosing by subcutaneous infusion was as effective as intravenous bolus dosing
Tumor Volume (area under curve) Day 6-Day 35 ([6]; s.c. infusion (high dose)): 1440 ± 1140
Tumor Volume (mm^3), Day 35 ([6]; s.c. infusion (high dose), IV LD 6.25 mg/kg, infusate 1.00 mg/ml): 31 ± 75.6 mm^3
Tumor Volume (area under curve) Day 6-Day 35 ([6]; s.c. infusion (low dose)): 1610 ± 1250
Tumor Volume (mm^3), Day 35 ([6]; s.c. infusion (low dose), IV LD 0.313 mg/kg, infusate 0.050 mg/ml): 80.6 ± 158 mm^3
treatment of metastatic breast cancer [7]: will be effective in treating metastatic breast cancer
